Protein sequences, listed by entry. Tags and fused reporters are not part of them.
UniProt Q15120, whole entry, looked up: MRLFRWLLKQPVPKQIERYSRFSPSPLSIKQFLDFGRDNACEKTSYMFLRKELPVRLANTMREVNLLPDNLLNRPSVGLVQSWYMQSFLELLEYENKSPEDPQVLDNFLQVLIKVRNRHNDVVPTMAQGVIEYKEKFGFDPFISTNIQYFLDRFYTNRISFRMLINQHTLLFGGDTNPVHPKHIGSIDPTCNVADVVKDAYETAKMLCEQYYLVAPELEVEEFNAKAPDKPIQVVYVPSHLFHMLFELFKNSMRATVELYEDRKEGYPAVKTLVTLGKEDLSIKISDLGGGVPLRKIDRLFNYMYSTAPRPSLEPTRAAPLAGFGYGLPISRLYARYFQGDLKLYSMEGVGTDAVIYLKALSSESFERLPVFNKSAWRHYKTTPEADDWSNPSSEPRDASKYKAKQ

According to ChEMBL document CHEMBL4007440, “Development of the First Generation of Disulfide-Based Subtype-Selective and Potent Covalent Pyruvate Dehydrogenase Kinase 1 (PDK1) Inhibitors” (J Med Chem, 2017):

Key:
[1] = biological target: [Pyruvate dehydrogenase (acetyl-transferring)] kinase isozyme 3, mitochondrial (Homo sapiens, UniProt Q15120); test: Ratio of Kinact to Ki for PDK3 (unknown origin)
Kelly = test: Antiproliferative activity against human Kelly cells after 72 hrs by CCK8 assay; assay type: functional, cell-based
[2] = biological target: [Pyruvate dehydrogenase (acetyl-transferring)] kinase isozyme 2, mitochondrial (Homo sapiens, UniProt Q15119); test: Ratio of Kinact to Ki for PDK2 (unknown origin)
Homo sapiens [3] = species: Homo sapiens; test: Selectivity ratio of Ki for full length His6-tagged PDK1 (unknown origin) over Ki for PDK2 (unknown origin)
Homo sapiens [4] = species: Homo sapiens; test: Selectivity ratio of Ki for full length His6-tagged PDK1 (unknown origin) over Ki for PDK3 (unknown origin)

Row | Ratio [1] [×10³ /M/s] | Ratio [2] [×10³ /M/s] | Ratio Ki (Homo sapiens [3]) | Ratio Ki (Homo sapiens [4]) | SMILES | Activity (Kelly)
1 | 0.45 | 0.56 | – | – | S=C(SSC(=S)N1CCOCC1)N1CCOCC1 | Dose-dependent effect
2 | 0.59 | 0.3 | – | – | COC[C@@H]1COCCN1C(=S)SSC(=S)N1CCOC[C@H]1COC | Dose-dependent effect
3 | 0.11 | 0.12 | 40 | 40 | S=C(SSC(=S)N1CCCOCC1)N1CCCOCC1 | Dose-dependent effect
